# Data: patent publication US4983610A, “Pyrimidine carboxylic acids and esters” (Bristol-Myers Squibb Company, priority 1990, dated 1991)
# System: ADP-induced human platelet aggregation
# Assay: cells
# Conditions: read-out: Inhibition of Human Platelet Aggregation (IC50) vs. ADP
row,Compound,IC50
1,"COC(=O)CCCCCCCCn1cc(-c2ccccc2)c(-c2ccccc2)nc1=O [Example 1, Methyl 2-Oxo-4,5-diphenyl-1(2H)-pyrimidinenonanoate]",> 32 µg/mL
2,"COC(=O)CCCCCCCn1cc(-c2ccccc2)c(-c2ccccc2)nc1=O [Example 3, Methyl 2-Oxo-4,5-diphenyl-1(2H)-pyrimidineoctanoate]",> 32 µg/mL
3,"O=C(O)CCCCCCCCn1cc(-c2ccccc2)c(-c2ccccc2)nc1=O [Example 2, 2-Oxo-4,5-diphenyl-1(2H)-pyrimidinenonanoic Acid]",12 µg/mL
4,"O=C(O)CCCCCCCn1cc(-c2ccccc2)c(-c2ccccc2)nc1=O [Example 4, 2-Oxo-4,5-diphenyl-1(2H)pyrimidineoctanoic Acid]",10 µg/mL
